# Ab-14 light chain CDR variants: yeast mating affinities

Reference: Li et al. 2023, doi:10.1038/s41467-023-39022-2. File: FLAb, binding data.

The target is the same throughout: PDVDLGDISGINAS, from the HR2 region of SARS-CoV-2 spike.

Ab-14 is the parent antibody, in scFv form: VH, then three GGGGS repeats, then VL. The heavy chain is unchanged in all variants.
VH: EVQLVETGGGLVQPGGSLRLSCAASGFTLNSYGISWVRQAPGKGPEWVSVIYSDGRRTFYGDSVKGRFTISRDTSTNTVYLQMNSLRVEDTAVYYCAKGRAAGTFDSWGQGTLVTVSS
VL: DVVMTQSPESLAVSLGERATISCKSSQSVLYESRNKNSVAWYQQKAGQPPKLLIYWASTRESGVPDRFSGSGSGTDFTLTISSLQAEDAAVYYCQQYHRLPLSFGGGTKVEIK

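The starting antibody came from a phage panning campaign against this peptide. This is the validation round: designs drawn from the data on random variants, tested in the same kind of assay. Several design methods are mixed in this list. The assay is AlphaSeq: two haploid yeast populations carry antibody and antigen on their surface. The frequency of each diploid, read from paired DNA barcodes, reflects how well the two displayed proteins bind. Each replicate has its own calibration line, from reference interactions of the BCL2 family. The assay was run in six technical replicates.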

Variants are written as CDR1, CDR2 and CDR3 of the light chain (limits as in the source). Parent: KSSQSVLYESRNKNSVA, WASTRES, QQYHRLPLS.
Kd is apparent (estimated from mating counts) and averaged on the log scale over replicates with a signal. Smaller is tighter.
An entry "nd" has no value in the source: the pair was not observed among the diploids in any replicate. This suggests poor binding but is not conclusive.
The list is sorted by this average, lowest first, undetected variants last.
The range of this assay differs from that of the first round, and the authors advise against merging the two.
The authors averaged sequences with at least three values out of six and counted those with two or fewer as poor binders.
Background: pairings of all light chain designs with three empty control strains gave a value in 4% of cases (median 430 nM, 5th percentile 38 nM). Values in that range, when seen in few replicates, are hard to tell from nonspecific mating.
Of ten entries with the parent sequence, four were seen in most replicates (averages 2.2 nM to 240 nM), three in one and three in none, so single entries are noisy.

CDR-L1,CDR-L2,CDR-L3,Kd,replicates with signal
KLMQSVLYESRNKNNVA,GASTRES,QQYHRLPLS,340 pM,6 of 6
KVDQDDLYENRNKNSVA,QASTRES,QQYHRLPLS,470 pM,6 of 6
KLEQSWEYESRNSNNVA,QASTRSD,QQYHRLPLS,580 pM,6 of 6
KLSQSHLYESRNKNSVA,SASTRES,QQYHRLPLS,610 pM,6 of 6
KVSQSMLYEQRNKNSVA,SASTREN,QSYHRLPLS,740 pM,6 of 6
KVSQSVLYESRNKQSVA,DASTRSS,QQYHRLPLS,780 pM,6 of 6
KFYQSVLYESRNKNSVA,EASTRES,QQYHRLPLS,830 pM,6 of 6
RMEWHNSGLLEAKNSVA,GVEHRAN,QQYMRLPLE,880 pM,6 of 6
KWSQSVLGEERNKMSVA,NASTRES,QQYHRLPLS,930 pM,6 of 6
KLEQSVLYESRNKNSVA,HASTRED,QQYHRLPLS,1.1 nM,6 of 6
KLSQSDLYESRNKNSVA,GASTRES,QAYHRLPLS,1.1 nM,6 of 6
KMSQSVLFESRNKNSVA,DASFRES,QQYHRLPLS,1.1 nM,6 of 6
KLNQSVLYESRNKNSVA,HASTRED,QQYHRLPLS,1.1 nM,6 of 6
KVSQSWLYESRNFNSVA,NASTRES,QQYHRLPLS,1.1 nM,6 of 6
KLLQSELYESRNKNSVA,NASQRES,QQYHRLPLS,1.1 nM,6 of 6
TMSQVHGMLSHNKNSVA,DMNTRGS,QQYDRLPLS,1.2 nM,6 of 6
KLSQSVMYESRNKNSVA,NASTRLS,QQYHRLPLS,1.2 nM,6 of 6
KWSCSSLYDDANKNSVA,NASTRLM,QQYHRLPLS,1.2 nM,6 of 6
KLRSVTGTEKVKGNNVA,EMETRER,QQYNRLPLS,1.2 nM,6 of 6
KLSQSTLYESGMKNSVA,NASKRMQ,QQYHRLPLS,1.3 nM,6 of 6
KTPQGVLYESRNKNSVA,NASVRES,QQYHRLPLS,1.5 nM,6 of 6
KSSESVLYESRNKNSVA,EASTRES,QQYHRLPLS,1.6 nM,6 of 6
KLSQSWEYLSRNSNAVA,NASQRLQ,QQYHRLPLS,2.1 nM,6 of 6
KFSQWNLYESRTKNSVA,NASTRES,QQYHRLPLS,2.1 nM,6 of 6
QLQIEPNGYMGMRSNVA,DGVMVRM,QQYARLPLM,2.1 nM,6 of 6
TLSGVMDMTSRNVNSVA,DLTTRGN,QQYHRLPLS,2.1 nM,6 of 6
KSSQSVLDESRNKNSVA,SASTRES,QQYHRLPLG,2.4 nM,6 of 6
TLTGVMDMTSRNVNSVA,DLTTRGN,QQYHRLPLS,2.4 nM,6 of 6
KQSFMVMEGSRNKNSVA,EASLREE,QQYHRLPLS,2.7 nM,6 of 6
KFSQSVLYESRTSNMVA,NASTRES,QQYHRLPLS,2.7 nM,6 of 6
KFSQSDLYEDGAKNSVA,NASTRCS,QQYHRLPLS,2.7 nM,6 of 6
KLSGSMSYEWRNCNNVA,NASQRES,QQYHRLPLS,2.8 nM,6 of 6
KLSQSMLYESRNKNSVA,EASDRLS,QDYHRLPLS,3.0 nM,6 of 6
QMTHPEESWQANQRSIA,NASASLD,QQYAQLPLM,3.0 nM,6 of 6
KFMQSELYESRNKNSVA,NASQRES,QQYHRLPLS,3.3 nM,6 of 6
ILMQPYKEPGAAYNNIA,DGSIRLQ,QQYHRLPLV,3.4 nM,6 of 6
KLSQSVLMESRNKNSVA,RASTRES,QQYHRLPLS,3.6 nM,6 of 6
MISNVMNTLTRYGNNVA,DLTEREE,QQYFRLPLS,3.9 nM,6 of 6
KISQMVTYESTWHGAIA,QTSEREQ,QQYHRLPFS,4.6 nM,6 of 6
KSSQLVLYPSRNKNSVA,NASTRES,QQYHRLPLS,5.0 nM,6 of 6
KCDQSQDYESRNKNWVA,NASQRES,QQYHRLPLS,5.1 nM,6 of 6
KSMQSVQYEDRNKNSVA,EASTRCS,QQYHRLPLS,5.9 nM,6 of 6
KFQGMVMMGDRNKNSVA,WASTRLQ,QQYHRLPLS,6.4 nM,6 of 6
VLQQLGLYEPRNKNSVA,SASTRLS,QQYHRLPLS,6.5 nM,6 of 6
MLTWGDDHTTGHQNAIA,HAHERNT,QQYALLPLS,6.6 nM,6 of 6
IISQVDGYLMHNTNSIA,DQTTRGS,QQYDRLPLS,7.2 nM,6 of 6
MLSQMWALGMKVKNSVA,QASMRFE,QQYERLPLI,9.3 nM,5 of 6
MLLQSTMYGERNRNSVA,HASTRCD,QQYHRLPLI,9.6 nM,6 of 6
MISNVMNTLTHVGNNVA,DLAEREQ,QQYFRLPLS,11 nM,5 of 6
QIYQAMHTLMQAKNNVA,DVTNRNR,QQYNRLPLS,11 nM,6 of 6
KIQQTHVGNNKKMEAIA,QGDQRCH,QSYDRLPLS,12 nM,6 of 6
KLQNFSQEHNGMWNNIA,DMTMKHT,QQYNRLPLV,13 nM,6 of 6
RLLYLDLHQTGKLNSVA,DATITQQ,QQYHQLPLM,13 nM,6 of 6
QVRDEQWAEGMNIQSIA,EGEVRKD,QQYNRLPLS,14 nM,6 of 6
KMTEQLYNGEREPSSIA,AGVIGSD,QQYHQLPLI,21 nM,6 of 6
KIRMSTGYESRNKDSIA,DNSTRGR,QQYHRLPLS,21 nM,6 of 6
KSSQSVLYEADNKNSVA,WASTRES,QQYHRLPLS,28 nM,6 of 6
RLSLEHTGYWEMMNSIA,QASTKQF,QQYDRLPLH,28 nM,4 of 6
KLTMITGLEKVSTNNVA,EMETREV,QQYNRLPLS,30 nM,6 of 6
MISYLTMYGSRNKNSVA,DLSTRGS,QQYHRLPLS,51 nM,5 of 6
MISQLYNMGQFAINSVA,QASTRNE,QQYDRLPLI,57 nM,6 of 6
MLSMVADYSQVSKNSVA,EMETREE,QQYDRLPLI,100 nM,3 of 6
IFSQSVLMGNLTKNSVA,QASQRFS,QQYHRLPLI,110 nM,6 of 6
VSDAFNFSDGQKWNNVA,QTSVRLQ,QDYQRLPLM,120 nM,5 of 6
KLSQSVWYESFNKNSVA,EASTRES,QQYHRLPLS,130 nM,3 of 6
KSSQSVLYESRNKNSVA,WCSTRES,QQDHRLPLM,270 nM,2 of 6
KIMQSLNYEMFNKNSVA,GQETRER,QSYHRLPLS,280 nM,6 of 6
MSSHSVLYESSNKNSVA,WVSTRES,QQYHRNPLS,350 nM,2 of 6
KSSESVLYESRNKNHVA,WASTRES,QQYHGLPLS,1.0 µM,1 of 6
KSSQSVSYESRNLNSVA,WASTRES,QQYHRDPLS,nd,0 of 6
KLSMLVLMESRNHNSVA,SANTREE,QQYHRLPLS,nd,0 of 6
KSSQSVLQESRNKNSVA,MMSTRES,QQYHRLPLS,nd,0 of 6
TISQLYNMGQFAINSVA,QASIRNA,QQYDRLPLA,nd,0 of 6
KSSQSVLGESRNKNSVA,PASTRES,QQYHRLPLS,nd,0 of 6
KSSQSVYYPSRNRNDVA,WASTRES,QNYHRLPLS,nd,0 of 6
TISQVMNTLSRQGNNVA,DLAERED,QQYFRLPLS,nd,0 of 6
KSSQSVLYEDRFKNSVA,WALTRVS,QQYHRLPLS,nd,0 of 6
IVSQLMLWGLHAKNSIA,EAEMRTN,QQYDRLPLF,nd,0 of 6

The first 12 entries again:

| CDR-L1 | CDR-L2 | CDR-L3 | Kd | replicates with signal |
|---|---|---|---|---|
| KLMQSVLYESRNKNNVA | GASTRES | QQYHRLPLS | 340 pM | 6 of 6 |
| KVDQDDLYENRNKNSVA | QASTRES | QQYHRLPLS | 470 pM | 6 of 6 |
| KLEQSWEYESRNSNNVA | QASTRSD | QQYHRLPLS | 580 pM | 6 of 6 |
| KLSQSHLYESRNKNSVA | SASTRES | QQYHRLPLS | 610 pM | 6 of 6 |
| KVSQSMLYEQRNKNSVA | SASTREN | QSYHRLPLS | 740 pM | 6 of 6 |
| KVSQSVLYESRNKQSVA | DASTRSS | QQYHRLPLS | 780 pM | 6 of 6 |
| KFYQSVLYESRNKNSVA | EASTRES | QQYHRLPLS | 830 pM | 6 of 6 |
| RMEWHNSGLLEAKNSVA | GVEHRAN | QQYMRLPLE | 880 pM | 6 of 6 |
| KWSQSVLGEERNKMSVA | NASTRES | QQYHRLPLS | 930 pM | 6 of 6 |
| KLEQSVLYESRNKNSVA | HASTRED | QQYHRLPLS | 1.1 nM | 6 of 6 |
| KLSQSDLYESRNKNSVA | GASTRES | QAYHRLPLS | 1.1 nM | 6 of 6 |
| KMSQSVLFESRNKNSVA | DASFRES | QQYHRLPLS | 1.1 nM | 6 of 6 |